The source of these data is paper PMC7597557 (PLoS Pathogens, 2020).

Peptide text beside a SMILES is read from it.

Data set [1] can be described thus: In vitro epitope processing (peptide degradation) assay in BMDC lysosomal extracts, mass spectrometry. As to conditions: 37C, pH4, LC-MS.
Data set [2] can be described thus: In vitro epitope processing (peptide degradation) assay in macrophage lysosomal extracts, mass spectrometry. The following applies: 2 nmol 34-mer, 15 ug macrophage lysosomal extract, 37C, LC-MS, one representative experiment.

Turning to `CC[C@H](C)[C@H](N)C(=O)N[C@@H](CCSC)C(=O)N[C@@H](Cc1ccc(O)cc1)C(=O)N[C@@H](CC(N)=O)C(=O)N[C@@H](Cc1ccc(O)cc1)C(=O)N1CCC[C@H]1C(=O)N[C@H](C(=O)N[C@@H](CCSC)C(=O)O)[C@@H](C)O` [A10T] (H-IMYNYPTM-OH), the “Production of TB10.4_4−11 epitope from the 34-mer (comparison in words)” value in data set [1] (10 and 30 minutes, BMDC lysosomal extract) is listed as “similarly produced”. Moreover, the “Production of TB10.4_4−11 epitope from the 34-mer” value in data set [1] (2 minutes, 2 nmol 34-mer, 15 ug BMDC lysosomal extract) is listed as “not detected”. Further, the “Production of TB10.4_4−11 epitope from the 34-mer, final level reached” value in data set [1] (after 30 minutes within a 1-hour degradation, BMDC lysosomal extract, one representative experiment) is on record as 0.252%. The “Production of TB10.4_4−11 epitope from the 34-mer, % of total amount of peptides” value in data set [2] (2 minutes, pH4 degradation buffer) was “none detected”; in data set [2] (10 minutes (peak), pH4), 0.147%; in data set [2] (30 minutes, pH4), 0.09%; in data set [2] (60 minutes, pH4) it was 0.067%.
